# Source: patent publication US20220274980A1, “PHARMACOLOGICAL INHIBITORS OF THE ENL YEATS DOMAIN” (priority 2019, published 2022)
# Protein sequences, listed by entry. Tags and fused reporters are not part of them. Residues count along the entry.
# UniProt Q03111, 1-138 limits assumed: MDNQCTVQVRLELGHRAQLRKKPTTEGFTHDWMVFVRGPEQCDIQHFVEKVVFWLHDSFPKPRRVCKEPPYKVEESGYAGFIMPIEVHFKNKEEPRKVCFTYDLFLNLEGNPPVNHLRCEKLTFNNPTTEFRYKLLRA
# UniProt Q03111, 1-148 limits assumed: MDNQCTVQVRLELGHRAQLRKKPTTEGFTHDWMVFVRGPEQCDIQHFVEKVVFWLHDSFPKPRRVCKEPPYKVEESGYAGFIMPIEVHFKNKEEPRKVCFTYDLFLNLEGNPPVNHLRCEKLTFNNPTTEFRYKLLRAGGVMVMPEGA
# Key:
# ENL(YEATS)-HiBiT = ENL(YEATS)-HiBiT (Homo sapiens, UniProt Q03111)
# [1] = molecular target: ENL YEATS domain (association with H3K27cr) (Homo sapiens, UniProt Q03111)
# BRD4 bromodomain 1 (BD1) = BRD4 bromodomain 1 (BD1) (Homo sapiens, UniProt O60885); assay: BRD4 (BD1)-H4 tetra-acetylated HTRF histone-binding assay; conditions: read-out: BRD4 (BD1)-H4 tetra-acetylated HTRF (IC50)
# Description: Protein Production. Double stranded DNA fragments encoding the protein sequence of ENL YEATS(1-148) were synthesized (IDT DNA) for assembly-based cloning into a modified expression vector backbone derived from pET21a (Novagen). The protein was fused to a StrepII-SUMO and 6×His tag on the amino and carboxy terminus, respectively. Transformed BL21(DE3) cells (New England Biolabs) were grown at 37° C. in 2×YT growth medium to an OD600 of 0.6. Protein expression was induced at 25° C. with the addition of isopropyl-β-D-thiogalactopyranoside (IPTG) to a final concentration of 0.4 mM. The culture was harvested by centrifugation following a 20-hour incubation and subsequently purified by immobilized metal affinity chromatography. Cells were resuspended 50 mM Tris-HCl pH 8.0, 300 mM NaCl, 10% glycerol, 10 mM imidazole, 1 mM DTT containing Complete EDTA-free protease inhibitor (Roche) and lysed by two passes through a MicroFluidizer at 10,000 psi. The lysate was clarified by centrifugation at 16,000 rpm for 30 minutes at 4° C. […]
# Homogenous time-resolved FRET (HTRF) histone-binding assays. […] Assays were incubated for 2 or more hours before measurement of HTRF signal on a PHERAstar plate reader (BMG Labtech; simultaneous dual emission; excitation=337 nm, emission 1=665 nm, emission 2=620 nm). […]
compound,measurement,setting,value
CC(C)NC(=O)c1ccc2nc(-c3cccnc3)cn2c1,IC50,ENL(YEATS)-HiBiT,75 µM
same,IC50,[1],6.5 µM
same,IC50,BRD4 bromodomain 1 (BD1); Table 1,> 50 µM
same,IC50,BRD4 bromodomain 1 (BD1); Table 2,> 50 µM

# Like-named read-outs stand apart in the source and are kept apart here.
